# Curated experimental data: melting point values

Source: data files of OPERA 2.9 (Mansouri et al.), github.com/kmansouri/OPERA.

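These are experimental values that the OPERA curators gathered from public databases to train and test their QSAR models. The files give a single number for a compound and property, which may rest on several reports. Conditions of the individual experiments are not part of the data. Where a salt, mixture or single isomer is drawn, the source does not say that exactly this form was tested. Unmarked limits or estimates from the upstream databases cannot be ruled out.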

The melting point is given in degrees Celsius.
"–" marks a cell with nothing listed here.
The databases behind each value are named after "via".

SMILES | name | melting point (°C) | via
CCOS(=O)(=O)c1cc(C(C)(C)C)cc2cc(C(C)(C)C)ccc12 | Ethyl dibunate | 138 | OCHEM
CC1(c2ccco2)NC(=O)NC1=O (centres undefined) | 5-(2-furyl)-5-methylimidazolidine-2,4-dione | 180 | OCHEM
Cc1ccc2cc(C(=O)O)c(C)nc2c1 | 2,7-Dimethylquinoline-3-carboxylic acid | 198 | OCHEM
C[C@]12C[C@@H](O)[C@H]3[C@@H]([C@H]4C[C@]5(C#N)[C@@H](C(=O)CC[C@]35C)C4=O)[C@@H]1CC[C@@]21CCC(=O)O1 | – | 345.7 | eChemPortal
CC(O)COc1ccc(C(C)(C)c2ccc(OCC(C)O)cc2)cc1 (centres undefined) | Bisphenol A bis(2-hydroxypropyl) ether | 61 | eChemPortal
Cc1ccccc1-n1c(-c2ccncc2)n[nH]c1=S | 5-Pyridin-4-yl-4-o-tolyl-4H-[1,2,4]triazole-3-thiol | 281 | OCHEM
Nc1n[nH]c2ccc(C(F)(F)F)cc12 | 1H-Indazol-3-amine, 5-(trifluoromethyl)- (9CI) | 134.5 | OCHEM
CNC(C)=CC(=O)OC | Methyl 3-(methylamino)but-2-enoate | 61.5 | OCHEM
S=C(SCc1ccccc1)SCc1ccccc1 | Carbonotrithioic acid, bis(phenylmethyl) ester | 29.4 | eChemPortal
O=C(Nc1ccccn1)C1CCCNC1 (centres undefined) | N-(Pyridin-2-yl)piperidine-3-carboxamide | 95 | OCHEM
Cc1ccc(N2C(=O)C=CC2=O)cc1 | Maleimide, N-p-tolyl- | 152 | OCHEM
Cc1ccc(S(N)(=O)=O)cc1Cl | 3-chloro-4-methylbenzenesulfonamide | 136.5 | OCHEM
CC(C)(C)CC(C)(C)c1ccc(O)c(-n2nc3ccccc3n2)c1 | Octrizole | 104.3 | OFMPub, eChemPortal
Cc1ccc(NC(=O)CC#N)cc1 | 2-cyano-N-(4-methylphenyl)acetamide | 189 | OCHEM
COc1c(OC)c(OC(C)=O)c2cc(F)ccc2c1OC(C)=O | 6-Fluoro-2,3-dimethoxy-1,4-naphthalenediyl diacetate | 102 | OCHEM
CN(C)c1ccc(N2C(=O)CSC2=S)cc1 | – | 139 | OCHEM
O=c1[nH]nnc2sc3c(c12)CCCC3 | – | 186 | OCHEM
CCOc1ccc(NC(=O)CCl)cc1 | p-Acetophenetidide, 2-chloro- | 150 | OCHEM
O=C(O)c1ccc(-n2ncc(Cl)c(Cl)c2=O)cc1 | 4-(4,5-dichloro-6-oxopyridazin-1(6H)-yl)benzoic acid | 315 | OCHEM
Clc1ccc(Oc2ccc(Cl)cc2Cl)c(Cl)c1 | Bis(2,4-dichlorophenyl)ether | 70 | PubChem, QSARDB
CC(=O)C(N=Nc1ccccc1)C(C)=O | 3-(Phenylazo)-2,4-pentanedione | 86.5 | OCHEM
CCOC(=O)c1nn(-c2ccccc2)cc1O | ethyl 4-hydroxy-1-phenyl-1H-pyrazole-3-carboxylate | 87 | OCHEM
CC(=O)Nc1ccc(S(=O)(=O)NCCC(=O)O)cc1 | N-(4-Acetamidobenzene-1-sulfonyl)-beta-alanine | 161 | OCHEM
CC(C)C(=O)N1CCC(C(=O)O)CC1 | 1-(2-Methylpropanoyl)piperidine-4-carboxylic acid | 103 | OCHEM
Cc1ccc(C(C)NC(=O)CCl)cc1C (centres undefined) | 2-chloro-N-[1-(3,4-dimethylphenyl)ethyl]acetamide | 197 | OCHEM
Nc1ccc(-c2nc3ccccc3o2)cc1 | Benzenamine, 4-(2-benzoxazolyl)- | 171 | OCHEM
Nc1cc(I)ccc1Cl | 2-Chloro-5-iodoaniline | 57 | OCHEM
CC[N+](CC)(CC)CC.O=C([O-])c1ccccc1 | Tetraethylammonium benzoate | 72.5 | eChemPortal
Cn1cc(C(=O)Nc2cccc3c2C2CCC3C2=C(Cl)Cl)c(C(F)F)n1 (centres undefined) | Benzovindiflupyr | 148.4 | eChemPortal
CCC1=C(O)C(=O)CC1 | 3-Ethyl-2-hydroxy-2-cyclopenten-1-one | 39 | PubChem
COC(=O)C(=O)CC(=O)c1cc(OC)ccc1OC | methyl 4-(2,5-dimethoxyphenyl)-2,4-dioxobutanoate | 87.5 | OCHEM

3 of these entries, quoted again:

{"smiles": "O=C(Nc1ccccn1)C1CCCNC1", "stereo": "centres undefined", "name": "N-(Pyridin-2-yl)piperidine-3-carboxamide", "melting point (°C)": "95", "via": "OCHEM"}
{"smiles": "Cc1ccc(N2C(=O)C=CC2=O)cc1", "name": "Maleimide, N-p-tolyl-", "melting point (°C)": "152", "via": "OCHEM"}
{"smiles": "C[C@]12C[C@@H](O)[C@H]3[C@@H]([C@H]4C[C@]5(C#N)[C@@H](C(=O)CC[C@]35C)C4=O)[C@@H]1CC[C@@]21CCC(=O)O1", "melting point (°C)": "345.7", "via": "eChemPortal"}